Source: patent publication US20260158136A1, “MEDICAMENT FOR TREATMENT AND/OR PREVENTION OF CANCER” (TORAY INDUSTRIES, INC., priority 2022, published 2026)

Test system: human colon cancer cell line (HCT116)
Assay: THP-1-mediated phagocytic activity against HCT116, anti-CAPRIN-1, anti-CD20 or anti-HER-2 antibody alone or with palbociclib (Example 4)
Assay type: cell-based
Description: Specifically, in the palbociclib combination test group, the indicated palbociclib was applied to human cancer cells, and then the cancer cells were cocultured with human monocytic cells (THP-1) in the presence of the anti-CAPRIN-1 antibody, anti-CD20 antibody or anti-HER-2 antibody at 1 M, and the antibody-mediated phagocytic activity against the cancer cells by THP-1 was evaluated.
The human-derived cancer cell used was a colon cancer cell line HCT116. On a 6-well plate, the human-derived cancer cells were cultured for 2 days in the presence of the respective drugs used in combination for the palbociclib combination test group. Specifically, palbociclib was added at a concentration of 10 μM to HCT 116. As a control, a test group without a drug used in combination, in which only the anti-CAPRIN-1 antibody, anti-CD20 antibody or anti-HER-2 antibody was added, was established. In the control group, the cancer cells were cultured for 2 days without addition of palbociclib beforehand.
Each cancer cell line after the culture was dissociated with TrypLE Express (Thermo), and the cancer cells were stained by the addition of calcein-AM at a final concentration of 0.04 μg/mL and incubation at 37° C. for 10 minutes. Next, the cells were dispensed at 1×10^4 cancer cells per well to a 96-well plate, and the anti-CAPRIN-1 antibody, anti-CD20 antibody or anti-HER-2 antibody at a final concentration of 1 μg/mL and 10×10^5 THP-1 cells were added to each well, followed by culture at 37° C. for 1 hour under a condition of 5% CO2. […] Further, dead cells were stained with propidium iodide (PI) (final concentration: 0.1 μg/mL), followed by the measurement of fluorescence from the cells by flow cytometry. […] Thus, the phagocytic activity in this evaluation system was calculated as the ratio (%) of APC-positive/calcein-AM-positive cells to the whole calcein-AM-positive population.

## anti-HER-2 antibody: anti-HER-2 antibody ("Herceptin") purchased from Chugai Pharmaceutical Co., Ltd.
Palbociclib 10 μM, Dunnett's test, FIG. 4
  effect of palbociclib combination on phagocytic activity compared with antibody without a drug used in combination: not remarkably increased
Palbociclib combination test group: HCT116 cultured 2 days with palbociclib 10 μM, then antibody at final concentration 1 μg/mL + THP-1, 1 h
  phagocytic activity against cancer cells: ≤ 18%
Test group without a drug used in combination: antibody only, 1 μg/mL + THP-1, 1 h
  phagocytic activity against cancer cells: ≤ 10%
